Results on 1 molecule are retold here after US9433687B2, “Anti-Notch3 antibodies and antibody-drug conjugates” (Pfizer Inc., priority 2012, dated 2016).

The test system of one test is N87 gastric xenografts. The test can be described thus: N87 gastric xenograft model. Conditions: by day 133; 5 mg/kg dose group, iv Q4dx4. The format is in vivo, mouse. As for the experimental part: Similar in vivo experiments were performed with the N87 gastric cancer cell line as described above. To generate xenografts, nude (Nu/Nu) female mice were implanted subcutaneously with 8×10^6 N87 cells in 50% Matrigel (BD Biosciences).
The N87 gastric model was also dosed intravenously Q4d×4 with PBS vehicle, rat-human chimeric anti-Notch3 ADCs and control huNeg-8.8 ADCs, at a dose of 5 mg/kg as provided in FIG. 16D.
The N87 gastric model was also dosed intravenously Q4d×4 with PBS vehicle and rat-human chimeric anti-Notch3 ADCs ch28-mc0131, ch75-mc0131, ch28-m(H2O)c-0131 and ch75-m(H2O)c-0131 at a dose of 5 mg/kg as provided in FIG. 16E.

For test [1], the system named is 37622A1 NSCLC patient-derived xenografts. The test can be described thus: 37622A1 patient derived NSCLC xenograft model. The following applies: 3 mg/kg iv Q4dx4. The format is in vivo, mouse. The text has this: The effects of anti-Notch3 ADCs were examined in immunodeficient mice on the in vivo growth of human tumor xenografts that were established from fragments of freshly resected 37622A1 NSCLC tumors obtained in accordance with appropriate consent procedures (Asterand). The 37622A1 NSCLC patient-derived xenografts were subcutaneously passaged in vivo as fragments from animal to animal in nude (Nu/Nu) female mice. When the tumors reached a volume of 150 to 300 mm^3, they were staged to ensure uniformity of the tumor size among various treatment groups. The 37622A1 NSCLC patient-derived xenografts model was dosed intravenously four times every four days (Q4d×4) with PBS vehicle, humanized anti-Notch3 ADCs, control huNeg-8.8 ADCs and cisplatin at the doses provided in Table 19.
For orientation: Xenograft models place foreign cells or tissue in a host animal.

The next test has as its system OVCAR3 (ovarian cancer). In words: In vitro cytotoxicity (MTS), OVCAR3. The following applies: Table 14; LP = lacked potency. In kind it is cell-based, human. As for the experimental part: The effects of anti-Notch3 ADCs were assessed on 1) cell lines endogenously expressing Notch3 protein: HCC2429 (lung cancer), OVCAR3 (ovarian cancer) and MDA-MB-468 (breast cancer), 2) cell lines engineered to over-express full length human Notch3 protein: MDA-MB-468/hNotch3 and U2OS/hNotch3, and 3) a negative control cell line (SW900) using an MTS cellular viability indicator (Promega, Madison, Wis.). These cell lines were cultured with increasing concentrations of anti-Notch3 ADCs comprising rat-human chimeric anti-Notch3 antibodies, ch28 and ch75, and humanized anti-Notch3 antibodies, hu28 and hu75, conjugated to various linker-payload combinations of the present invention. As a specificity control for the anti-Notch3-ADCs, non-targeted control-ADCs (huNeg8.8-ADCs or ch2H6-ADCs) were also tested on the same cell lines. After four days, viability of each culture was assessed. IC50 values were calculated by logistic non-linear regression, model #203 with XL fit v4.2 (IDBS, Guildford, Surry, UK) and presented as ng Ab/mL. […]
This process generated the anti-Notch3 cysteine mutant ADCs: hu28-(L443C)-vc0101 and hu28-(L443C/κK183C)-vc0101. The activity of the anti-Notch3 cysteine mutant ADCs were assessed on cell lines endogenously expressing Notch3 protein: HCC2429 (lung cancer) and OVCAR3 (ovarian cancer) using an MTS cellular viability indicator as described in previous Examples.

B1: hu75-vc0101: hu75 conjugated to vc0101 linker-payload (conjugate)
heavy: EVQLVESGGGLVQPGGSLRLSCAASGYAFTDYWMTWVRQAPGKGLEWVAEISPNSGGTNFNEKFKGRFTISVDNAKNSLYLQMNSLRAEDTAVYYCARGEIRYNWFAYWGQGTLVTVSSASTKGPSVFPLAPSSKSTSGGTAALGCLVKDYFPEPVTVSWNSGALTSGVHTFPAVLQSSGLYSLSSVVTVPSSSLGTQTYICNVNHKPSNTKVDKKV[letters of human IgG1 Fc omitted]
light: DIQMTQSPSSLSASVGDRVTITCKASQNVGNNIAWYQQKPGKAPKLLIYYASNRYTGVPSRFSGSGYGTDFTLTISSLQPEDFATYYCQRLYNSPFTFGGGTKVEIKRTVAAPSVFIFPPSDEQLKSGTASVVCLLNNFYPREAKVQWKVDNALQSGNSQESVTEQDSKDSTYSLSSTLTLSKADYEKHKVYACEVTHQGLSSPVTKSFNRGEC
Consider B1, for which, in the test with N87 gastric xenografts, the “animals that were tumor-free” value is on record as 4 out of 9. In addition, the tumor volume in test [1] (Day 4) worked out at 200 mm^3; in test [1] (Day 7), 227 mm^3; in test [1] (Day 11) it was 175 mm^3; in test [1] (Day 14), 156 mm^3; in test [1] (Day 18) it was 112 mm^3; in test [1] (Day 21), 122 mm^3. For the same molecule, the tumor volume in test [1] (Day 25) amounted to 137 mm^3; in test [1] (Day 28) it was 161 mm^3; in test [1] (Day 32), 175 mm^3; in test [1] (Day 35), 271 mm^3; in test [1] (Day 39), 319 mm^3; in test [1] (Day 42) it was 357 mm^3. The tumor volume was found to be 431 mm^3 in test [1] (Day 46); 519 mm^3 in test [1] (Day 49); 678 mm^3 in test [1] (Day 53); 818 mm^3 in test [1] (Day 56); 710 mm^3 in test [1] (Day 60); 824 mm^3 in test [1] (Day 63). Further, the tumor volume amounted to 938 mm^3 in test [1] (Day 67), 953 mm^3 in test [1] (Day 70) and 185 mm^3 in test [1] (Day -1). The “IC50 (ng Ab/mL), OVCAR3” value with OVCAR3 (ovarian cancer) is 515 ng Ab/mL.
